This note sets out measurements from patent US5280119A, “Heterocyclic amine-boranes, and method of inhibiting DNA topoisomerase activity and/or combatting inflammation, hyperlipidemia, and/or neoplasia using amine-borane compounds” (dated 1994).

Chains of the proteins cited; added tags and fusions are not shown. Lines headed by an entry give the natural chain unless they say otherwise; changes in a name come on top.
UniProt P11388: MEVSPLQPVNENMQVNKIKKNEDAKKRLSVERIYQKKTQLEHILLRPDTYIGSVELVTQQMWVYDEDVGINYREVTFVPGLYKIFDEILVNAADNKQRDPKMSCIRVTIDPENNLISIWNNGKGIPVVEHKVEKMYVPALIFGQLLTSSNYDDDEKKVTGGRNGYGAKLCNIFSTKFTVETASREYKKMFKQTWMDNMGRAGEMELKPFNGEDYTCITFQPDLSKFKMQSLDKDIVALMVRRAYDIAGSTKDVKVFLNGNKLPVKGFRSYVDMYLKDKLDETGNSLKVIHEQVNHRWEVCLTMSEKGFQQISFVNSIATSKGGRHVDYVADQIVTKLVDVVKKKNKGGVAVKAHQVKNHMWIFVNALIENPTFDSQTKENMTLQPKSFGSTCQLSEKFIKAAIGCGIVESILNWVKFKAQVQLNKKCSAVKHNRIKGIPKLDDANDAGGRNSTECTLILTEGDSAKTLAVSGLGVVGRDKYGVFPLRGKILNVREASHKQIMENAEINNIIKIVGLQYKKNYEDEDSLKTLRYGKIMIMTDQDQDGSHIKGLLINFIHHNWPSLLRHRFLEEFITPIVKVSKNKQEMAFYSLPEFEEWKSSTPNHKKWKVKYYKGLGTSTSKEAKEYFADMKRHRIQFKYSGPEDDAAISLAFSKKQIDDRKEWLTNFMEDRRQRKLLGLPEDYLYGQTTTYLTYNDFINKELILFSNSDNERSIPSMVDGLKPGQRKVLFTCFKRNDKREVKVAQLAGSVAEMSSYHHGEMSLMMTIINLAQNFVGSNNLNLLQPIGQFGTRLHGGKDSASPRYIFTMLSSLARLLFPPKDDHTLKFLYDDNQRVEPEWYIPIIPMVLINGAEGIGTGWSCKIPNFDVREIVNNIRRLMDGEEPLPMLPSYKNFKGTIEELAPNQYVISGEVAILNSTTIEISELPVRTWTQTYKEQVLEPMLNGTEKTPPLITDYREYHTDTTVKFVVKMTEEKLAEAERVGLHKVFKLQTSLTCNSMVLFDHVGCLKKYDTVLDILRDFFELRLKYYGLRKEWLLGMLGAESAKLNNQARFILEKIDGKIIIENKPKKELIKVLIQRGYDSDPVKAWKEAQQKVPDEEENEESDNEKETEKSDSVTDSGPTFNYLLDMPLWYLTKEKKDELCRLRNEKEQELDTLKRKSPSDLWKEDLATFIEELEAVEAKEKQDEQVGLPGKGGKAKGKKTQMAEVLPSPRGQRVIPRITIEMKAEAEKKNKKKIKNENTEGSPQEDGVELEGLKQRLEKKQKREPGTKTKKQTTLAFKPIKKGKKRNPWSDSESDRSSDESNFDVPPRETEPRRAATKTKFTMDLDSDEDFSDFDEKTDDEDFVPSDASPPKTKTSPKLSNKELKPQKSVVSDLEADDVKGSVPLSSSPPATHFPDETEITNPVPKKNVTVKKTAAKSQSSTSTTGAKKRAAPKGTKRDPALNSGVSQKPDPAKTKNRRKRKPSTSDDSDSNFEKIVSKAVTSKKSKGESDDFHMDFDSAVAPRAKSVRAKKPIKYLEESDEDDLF

≈ marks a conversion by molar mass, not a printed value.

Assay [1] has as its system human Tmolt3 acute lymphoblastic T cell leukemia. The assay is described as follows: Cytotoxicity, Tmolt3. Conditions: trypan blue exclusion.
The test system of assay [2] is HeLa-S^3 suspended cervical carcinoma. Description: Cytotoxicity, HeLa-S3. Conditions: hela-s3 cells.
Another assay deals with L1210 leukemia. The assay is described as follows: in vivo L1210 leukemia screen. Conditions: 20 mg/kg/day.
The subject of the next assay is glioma EH 118 MG. Description: Cytotoxicity, glioma EH 118 MG. Conditions: eh 118 mg cells.
A further assay deals with osteosarcoma TE418. Description: Cytotoxicity, osteosarcoma TE418. Conditions: te418 cells.
Assay [3] in a line: Hypolipidemic screen in normal mice. Conditions: CF1 male mice, IP, N = 6.
The subject of assay [4] is murine L1210 lymphoid leukemia. Description: Cytotoxicity, L1210 lymphoid leukemia. Conditions: trypan blue exclusion.
A further assay has as its system Lewis lung carcinoma. Description: In vivo Lewis lung carcinoma activity. Conditions: 8 mg/kg/day I.P.
Assay [5] concerns lung bronchogenic MB-9812. The assay is described as follows: Cytotoxicity, lung bronchogenic MB-9812. Conditions: for ED50 Cytotoxicity, Human Lung Bronchogenic: concentration which inhibits 50% of cell growth.
In assay [6] the test system is P388 lymphocytic leukemia. Description: Cytotoxicity, P388 lymphocytic leukemia. Conditions: for ED50 Cytotoxicity, P388 Lymphocytic Leukemia: p388 cells.
For assay [7], the system named is KB epidermoid nasopharynx. Description: Cytotoxicity, KB epidermoid nasopharynx. Conditions: for ED50 Cytotoxicity, Human KB: kb cells.
The subject of assay [8] is colorectal adenocarcinoma SW480. Description: Cytotoxicity, colorectal adenocarcinoma SW480. Conditions: sw480 cells.
Assay [9] deals with DNA topoisomerase II (HeLa) (Homo sapiens, UniProt P11388). Description: DNA topoisomerase II inhibition (unknotting of knotted DNA). Conditions: one hour reaction, agarose gel.
The subject of assay [10] is Ehrlich ascites carcinoma. The assay is described as follows: in vivo Ehrlich ascites carcinoma screen. Conditions: 20 mg/kg/day I.P., CF1 male mice.
A short description of assay [11]: Anti-inflammatory activity, carrageenan paw. Conditions: CF1 Mice, 20 mg/kg × 2 (table head; b1373: 8 mg/kg i.p. 3 hours and 30 minutes before carrageenan). In general terms: The carrageenan paw model is a standard test of acute inflammation.
Assay [12] deals with P388 lymphocytic leukemia. Description: in vivo P388 lymphocytic screen. Conditions: 20 mg/kg/day I.P.

Take `COC(=O)[BH2-][NH+]1CCC(C)CC1` (stereo not shown): in [1], the “ED50 Cytotoxicity, Human lymphocyte Tmolt3” value worked out at 4.19 µg/mL (≈ 24.5 µM). Besides, the “ED50 Cytotoxicity, Human HeLa-S^3” value in assay [2] is 2.03 µg/mL (≈ 11.9 µM). The “T/C%, L1210 leukemia screen in vivo” value with L1210 leukemia is “inactive”. Also, in the assay on glioma EH 118 MG, the “ED50 Cytotoxicity, Human Glioma” value stood at 1.67 µg/mL (≈ 9.76 µM). For the same compound, the “ED50 Cytotoxicity, Human Osteo-Sarcoma” value in the assay on osteosarcoma TE418 was 6.26 µg/mL (≈ 36.6 µM). Further, in [3] (5 Mg/kg/day), the “Serum Cholesterol Day 9” value is on record as 92 ± 6% of Control, the “Serum Cholesterol Day 16” value is given as 83 ± 4% of Control and the “Serum Triglycerides Day 16” value is given as 76 ± 6% of Control. Also, in assay [4], the “ED50 Cytotoxicity, L1210 Lymphoid Leukemia” value was found to be 3.00 µg/mL (≈ 17.5 µM). Besides, the “T/C%, in vivo Lewis lung carcinoma” value in the assay with Lewis lung carcinoma is “inactive”. The “ED50 Cytotoxicity, Human Lung Bronchogenic” value in [5] worked out at 3.72 µg/mL (≈ 21.7 µM). In addition, the “activity against growth of lung bronchogenic tumor (in words)” value in assay [5] (text summary of Table 4) is recorded as “significant activity”. Further, in assay [6], the “ED50 Cytotoxicity, P388 Lymphocytic Leukemia” value was 4.87 µg/mL (≈ 28.5 µM). In addition, the “ED50 Cytotoxicity, Human KB” value in assay [7] is 2.18 µg/mL (≈ 12.7 µM). In [7] (text summary of Table 4), the “activity in the KB nasopharynx screen (in words)” value is recorded as “good activity”. Further, the “ED50 Cytotoxicity, Human Colon SW480” value in [8] was 6.63 µg/mL (≈ 38.8 µM). The “Inhibitory Concentration, Topoisomerase II” value in assay [9] is 100 µM.
Turning to `N#C[BH2-][n+]1cc[nH]c1`, in assay [1], the “ED50 Cytotoxicity, Human lymphocyte Tmolt3” value amounted to 2.93 µg/mL (≈ 27.4 µM). Besides, the “ED50 Cytotoxicity, Human HeLa-S^3” value in assay [2] worked out at 1.92 µg/mL (≈ 18 µM). Also, in the assay with L1210 leukemia, the “T/C%, L1210 leukemia screen in vivo” value stood at 125%. For the same compound, the “ED50 Cytotoxicity, Human Glioma” value with glioma EH 118 MG came out at 3.22 µg/mL (≈ 30.1 µM). The “ED50 Cytotoxicity, Human Osteo-Sarcoma” value in the assay with osteosarcoma TE418 came out at 4.09 µg/mL (≈ 38.3 µM). Also, in assay [3] (8 Mg/kg/day), the “Serum Cholesterol Day 9” value was 78 ± 6% of Control, the “Serum Cholesterol Day 16” value is listed as 67 ± 5% of Control and the “Serum Triglycerides Day 16” value is 67 ± 5% of Control. Further, the “ED50 Cytotoxicity, L1210 Lymphoid Leukemia” value in [4] was 5.12 µg/mL (≈ 47.9 µM). The “T/C%, in vivo Lewis lung carcinoma” value with Lewis lung carcinoma turned out to be 148%. Moreover, the “ED50 Cytotoxicity, Human Lung Bronchogenic” value in assay [5] is 2.92 µg/mL (≈ 27.3 µM). Moreover, in assay [6], the “ED50 Cytotoxicity, P388 Lymphocytic Leukemia” value was found to be 4.83 µg/mL (≈ 45.2 µM). Moreover, in [7], the “ED50 Cytotoxicity, Human KB” value amounted to 6.15 µg/mL (≈ 57.5 µM). Also, the “inhibition of growth, in vivo Ehrlich ascites carcinoma” value in [10] was determined as 66%. Further, the “% of Control, anti-inflammatory (paw weight increase)” value in assay [11] is given as 99 % of Control. Moreover, the “ED50 Cytotoxicity, Human Colon SW480” value in assay [8] was 4.16 µg/mL (≈ 38.9 µM).
As for `O=C(O)[BH2-][NH+]1CCC(c2ccccc2)CC1` (stereo not shown), the “ED50 Cytotoxicity, Human lymphocyte Tmolt3” value in [1] came out at 2.83 µg/mL (≈ 12.9 µM). Moreover, in assay [2], the “ED50 Cytotoxicity, Human HeLa-S^3” value is 1.23 µg/mL (≈ 5.61 µM). The “T/C%, L1210 leukemia screen in vivo” value with L1210 leukemia was “inactive”. Besides, the “ED50 Cytotoxicity, Human Glioma” value in the assay on glioma EH 118 MG worked out at 2.23 µg/mL (≈ 10.2 µM). For the same compound, the “T/C%, in vivo P388 lymphocytic screen” value in assay [12] stood at 135%. Further, the “ED50 Cytotoxicity, Human Osteo-Sarcoma” value in the assay on osteosarcoma TE418 stood at 7.06 µg/mL (≈ 32.2 µM). Besides, in assay [3] (8 Mg/kg/day), the “Serum Cholesterol Day 9” value is recorded as 81 ± 6% of Control, the “Serum Cholesterol Day 16” value was 73 ± 5% of Control and the “Serum Triglycerides Day 16” value is 86 ± 7% of Control. Further, in [4], the “ED50 Cytotoxicity, L1210 Lymphoid Leukemia” value is 3.56 µg/mL (≈ 16.2 µM). Besides, the “T/C%, in vivo Lewis lung carcinoma” value with Lewis lung carcinoma is 141%. In addition, the “ED50 Cytotoxicity, Human Lung Bronchogenic” value in assay [5] was 4.96 µg/mL (≈ 22.6 µM). Also, the “ED50 Cytotoxicity, P388 Lymphocytic Leukemia” value in [6] turned out to be 2.93 µg/mL (≈ 13.4 µM). The “activity in the murine P388 lymphocytic screen (in words)” value in assay [6] (text summary of Table 4) is listed as “active”. Further, the “ED50 Cytotoxicity, Human KB” value in assay [7] amounted to 6.54 µg/mL (≈ 29.9 µM). In addition, the “inhibition of growth, in vivo Ehrlich ascites carcinoma” value in assay [10] worked out at 83%. The “% of Control, anti-inflammatory (paw weight increase)” value in assay [11] is listed as 80 % of Control. Also, the “ED50 Cytotoxicity, Human Colon SW480” value in assay [8] worked out at 5.32 µg/mL (≈ 24.3 µM). In addition, the “Inhibitory Concentration, Topoisomerase II” value in assay [9] came out at 100 µM.
